These are literature values, as cited in patent US20180258123A1, “Suppressors of Premature Termination Codons as Therapeutics and Methods for Their Use” (The University of British Columbia, priority 2015, published 2018).

For this data set the following is noted: cited from earlier work.

Turning to Gentamicin, the “plasma concentrations that should be avoided” value (long-term treatment) is on record as “above 10 μM”. In addition, the plasma levels (typical) was 2000 to 24000 nM.
